The target of the test is Sodium-dependent noradrenaline transporter (Homo sapiens, UniProt P23975). Briefly: Inhibition of [3H]norepinephrine uptake at human NET expressed in HEK293 cells. In kind it is cell-based.

Sequences of proteins named here, by UniProt entry; tags and fusion partners are left off.
UniProt P23975, whole entry: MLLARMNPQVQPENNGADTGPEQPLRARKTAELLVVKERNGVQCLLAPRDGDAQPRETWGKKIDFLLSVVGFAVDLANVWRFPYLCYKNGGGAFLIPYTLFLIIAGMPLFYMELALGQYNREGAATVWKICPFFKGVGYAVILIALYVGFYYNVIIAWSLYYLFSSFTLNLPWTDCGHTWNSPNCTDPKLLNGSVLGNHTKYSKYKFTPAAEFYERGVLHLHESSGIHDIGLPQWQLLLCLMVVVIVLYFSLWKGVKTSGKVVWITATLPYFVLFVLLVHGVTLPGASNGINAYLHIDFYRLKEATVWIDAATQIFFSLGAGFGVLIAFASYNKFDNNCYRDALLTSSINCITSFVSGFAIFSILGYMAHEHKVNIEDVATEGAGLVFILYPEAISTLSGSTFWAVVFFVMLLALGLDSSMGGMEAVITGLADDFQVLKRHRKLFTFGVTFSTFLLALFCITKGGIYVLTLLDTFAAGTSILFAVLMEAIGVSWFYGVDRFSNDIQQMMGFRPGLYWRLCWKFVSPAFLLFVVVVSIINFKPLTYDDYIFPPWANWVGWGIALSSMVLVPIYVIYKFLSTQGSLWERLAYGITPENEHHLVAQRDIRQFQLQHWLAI

pIC50: −log10 of the molar value.

Consider `CC(NC(C)(C)C)C(=O)c1cccc(Cl)c1` (stereo unspecified) [BUPROPION], for which the pIC50 (in general, the IC50 on a negative log10 scale, so that one unit is a factor of ten) was 5.73.

The record behind these values is ChEMBL document CHEMBL1157604 (J Med Chem, 2010).
